Results taken from paper PMC9834252.

How the values were obtained:
[1] = target: HOIL-1 helix-RBR (WT) (human) (UniProt Q9BYM8)
[2] = target: HOIP RBR (amino acids 696–1072) (human) (UniProt Q96EP0)

| EC50 of activation of HOIL-1 helix-RBR catalysed UbcH7-Ub discharge, di-Ub 0–40 µM [1] [µM] | EC50 of activation of HOIP chain formation and transthiolation (HOIP-Ub thioester formation) [2] [µM] | Substance |
| --- | --- | --- |
| 18 |  | K63 linked di-Ub (from UniProt P0CG48 1-76) (complex) |
|  | 19.9 | blocked M1-linked di-Ub (GPG-di-UbΔC-term Gly) (from UniProt P0CG48 1-76; P0CG48 1-76) |
